The record followed here is patent US5936105A, “14-EPI-19-nor-vitamin D compounds and methods” (Tetrionics, Inc., priority 1998, dated 1999).

In test [1] the test system is HL-60 cells. As to the kind of experiment: Differentiation of HL-60 cells (NBT reduction assay). Conditions: Homo sapiens, read-out: EC50 (concentration to induce differentiation in 50% of the cells; text: IC50). It is filed as cell-based.
In test [2] the test system is HL-60 cells. As to the kind of experiment: Inhibition of HL-60 cell proliferation (thymidine incorporation assay). In kind it is cell-based. The settings on record: Homo sapiens, read-out: EC50 (50% reduction in thymidine incorporation; text: IC50). (In general: Uptake of a labelled nucleoside into DNA is a usual measure of proliferation.)

With `C=C1/C(=C\C=C2/CCC[C@]3(C)[C@@H]([C@H](C)CCCC(C)(C)O)CC[C@@H]23)C[C@@H](O)C[C@@H]1O` [1,25(OH)2 D3, 1α,25-dihydroxyvitamin D3], the EC50 in test [1] was determined as 0.5 nM; in test [2] it was 30 nM.
